Data on 1 compound can be found in US20200115357A1, “LIVER X RECEPTORS (LXR) MODULATORS” (Phenex-FXR GmbH, priority 2017, published 2020).

Chains of the proteins cited; added tags and fusions are not shown. A line that says so, or that is headed by a name, gives the form on record, which may keep a tag or linker. Residues count along the entry.
UniProt P55055, 156-460 with tags or gaps DUP175-175: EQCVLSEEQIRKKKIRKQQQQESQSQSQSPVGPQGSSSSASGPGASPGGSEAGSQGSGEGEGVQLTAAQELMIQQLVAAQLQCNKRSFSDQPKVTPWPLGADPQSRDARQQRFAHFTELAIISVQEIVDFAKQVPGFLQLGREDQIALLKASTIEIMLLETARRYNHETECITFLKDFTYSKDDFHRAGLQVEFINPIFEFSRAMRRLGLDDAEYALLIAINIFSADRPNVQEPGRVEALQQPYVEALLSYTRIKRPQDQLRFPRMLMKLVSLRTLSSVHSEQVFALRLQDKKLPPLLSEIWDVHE
UniProt Q13133, 155-447 limits assumed: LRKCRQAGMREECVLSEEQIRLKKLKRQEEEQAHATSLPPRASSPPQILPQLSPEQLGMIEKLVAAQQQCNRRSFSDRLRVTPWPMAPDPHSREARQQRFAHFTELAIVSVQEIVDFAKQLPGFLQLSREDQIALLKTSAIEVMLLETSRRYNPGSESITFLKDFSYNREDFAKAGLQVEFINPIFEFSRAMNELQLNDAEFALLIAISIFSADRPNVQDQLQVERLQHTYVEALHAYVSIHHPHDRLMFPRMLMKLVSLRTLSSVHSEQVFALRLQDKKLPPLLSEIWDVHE

For experiment [1], the target named is GST-LXRβ ligand-binding domain (Homo sapiens, UniProt P55055, DUP175-175). The experiment is described as follows: TR-FRETβ activity assay (LXRβ-LBD / NCoA3 coactivator peptide, prestimulated with 24(S)-25-epoxycholesterol). The method, then:
(§1) The tested compounds were usually dissolved, tested and stored as 20 mM stock solutions in DMSO. Since sulfonyl acetic acid derivatives tend to decarboxylate under these conditions, these stock solutions were prepared, tested and stored as 20 mM DMSO stock solutions containing 100 mM trifluoroacetic acid (5 equivalents). Sulfonyl acetic acid derivatives are shelf stable as solid at rt for long time as reported by Griesbrecht et al. (Synlett 2010:374) or Faucher et al. (J. Med. Chem. 2004; 47:18).
Recombinant GST-LXRβ ligand-binding domain (LBD; amino acids 156-461; NP009052; SEQ ID NO:2) was expressed in E. coli and purified via gluthatione-sepharose affinity chromatography. N-terminally biotinylated NCoA3 coactivator peptide (SEQ ID NO:1) was chemically synthesized (Eurogentec). Assays were done in 384 well format (final assay volume of 25 μL/well) in a Tris/HCl buffer (pH 6.8) containing KCl, bovine serum albumin, Triton-X-100 and 1 μM 24(S)-25-epoxycholesterol as LXR-prestimulating agonist. […] The reaction was mixed thoroughly, equilibrated for 1 h at 4° C. and vicinity of LXRβ and coactivator peptide was detected by measurement of fluorescence in a VictorX4 multiplate reader (PerkinElmer Life Science) using 340 nm as excitation and 615 and 665 nm as emission wavelengths. […]

Experiment [2] addresses LXRα ligand-binding domain (LBD) (Homo sapiens, UniProt Q13133). Nature of the experiment: LXR Gal4 reporter transient transfection assay (M2H), Gal4α LBD. To be noted: read-out: M2H Gal4α LBD activity range (EC50); HEK293 cells. The method, then:
as §1
(§2) LXR Gal4 Reporter Transient Transfection Assays
(§3) LXRα and LXRβ activity status was determined via detection of interaction with coactivator and corepressor proteins in mammalian two-hybrid experiments (M2H). […] As cofactors, domains of either the steroid receptor coactivator 1 (SRC1; amino acids 552-887; SEQ ID NO:5) or of the corepressor NCoR (amino acids 1903-2312 SEQ ID NO:6) were expressed as fusions to the DNA binding domain of the yeast transcription factor GAL4 (from pCMV-BD; Stratagene). Interaction was monitored via activation of a coexpressed Firefly Luciferase Reporter gene under control of a promoter containing repetitive GAL4 response elements (vector pFRLuc; Stratagene). […] Measurements of luminescence were done in a BMG-Iuminometer.

The target of experiment [3] is LXRβ ligand-binding domain (LBD) (Homo sapiens, UniProt P55055, DUP175-175). Nature of the experiment: LXR Gal4 reporter transient transfection assay (M2H), Gal4β LBD. To be noted: read-out: M2H Gal4β LBD activity range (EC50); HEK293 cells. The procedure:
as §1, §2, §3

On to `Cc1cc(C)c(S(=O)(=O)N(Cc2ccc(C(F)(F)F)o2)CC2CCC(c3cccc(C(C)(C)C(=O)O)c3)CC2)c(C)c1` (stereo not shown) [Example 19/1], for which the “behavior in FRET assay” value in experiment [1] (agonist or inverse agonist) is “ia”. For the same compound, the EC50 (in general, the midpoint of the concentration-response curve) in experiment [1] (read-out: FRETβ activity range (EC50), 1 μM 24(S)-25-epoxycholesterol as prestimulating agonist) lay within 1 to 10 µM; in experiment [2], 0.1 to 1 µM; in experiment [3], 0.1 to 1 µM.
